Reference: paper PMC6776900, “PPM1G forms a PPP‐type phosphatase holoenzyme with B56δ that maintains adherens junction integrity” (EMBO Reports, 2019)

B1: MBP-PPP2R1A (natural protein)
chain: not shown
notes: PPP2R1A, scaffold (A) subunit of PP2A, full-length protein; source: E. coli BL21 (DE3), purified
B2: 6xHis-tagged PPP2R1A (natural protein)
chain: not shown
notes: PPP2R1A, scaffold (A) subunit of PP2A; source: recombinant

How the values were obtained:
GST-B56δ Δ91–102 = target: T1, GST-B56δ Δ91–102 (human, UniProt Q14738, Δ91–102); assay: pull-down; GST-tagged bait on glutathione Sepharose beads incubated with MBP-tagged prey for 1 h at 4°C, detection with MBP antibody; details: both partners purified
T1 construct: source: E. coli BL21 (DE3), purified (glutathione Sepharose)

GST-B56δ = target: T2, GST-B56δ (human, UniProt Q14738); assay: BLI; Octet Red 96; His-tagged PPM1G or PPP2R1A immobilised on Ni-NTA biosensors, GST-B56δ proteins in solution (100–400 nm); 50 mM Tris pH 7.5, 300 mM NaCl, 0.01% NP-40 Igepal, 1 mM DTT; 25 °C; details: both partners purified
T2 construct: PP2A regulatory subunit B56δ (PPP2R5D), human cDNA, full-length protein; also called GST-B56δ wild type (WT); GST-tagged B56δ; source: E. coli BL21 (DE3), purified (glutathione Sepharose)

Binder	binding result (GST-B56δ Δ91–102)	Kd (GST-B56δ) [nM]
B1	binds	
B2		3.6
